Assay results from US11618753B2 (priority 2018, dated 2023).

Amino acid sequences for entries named in this document (tags omitted). A change or cut given only in a name is not applied to a line headed by its entry.
UniProt O00329: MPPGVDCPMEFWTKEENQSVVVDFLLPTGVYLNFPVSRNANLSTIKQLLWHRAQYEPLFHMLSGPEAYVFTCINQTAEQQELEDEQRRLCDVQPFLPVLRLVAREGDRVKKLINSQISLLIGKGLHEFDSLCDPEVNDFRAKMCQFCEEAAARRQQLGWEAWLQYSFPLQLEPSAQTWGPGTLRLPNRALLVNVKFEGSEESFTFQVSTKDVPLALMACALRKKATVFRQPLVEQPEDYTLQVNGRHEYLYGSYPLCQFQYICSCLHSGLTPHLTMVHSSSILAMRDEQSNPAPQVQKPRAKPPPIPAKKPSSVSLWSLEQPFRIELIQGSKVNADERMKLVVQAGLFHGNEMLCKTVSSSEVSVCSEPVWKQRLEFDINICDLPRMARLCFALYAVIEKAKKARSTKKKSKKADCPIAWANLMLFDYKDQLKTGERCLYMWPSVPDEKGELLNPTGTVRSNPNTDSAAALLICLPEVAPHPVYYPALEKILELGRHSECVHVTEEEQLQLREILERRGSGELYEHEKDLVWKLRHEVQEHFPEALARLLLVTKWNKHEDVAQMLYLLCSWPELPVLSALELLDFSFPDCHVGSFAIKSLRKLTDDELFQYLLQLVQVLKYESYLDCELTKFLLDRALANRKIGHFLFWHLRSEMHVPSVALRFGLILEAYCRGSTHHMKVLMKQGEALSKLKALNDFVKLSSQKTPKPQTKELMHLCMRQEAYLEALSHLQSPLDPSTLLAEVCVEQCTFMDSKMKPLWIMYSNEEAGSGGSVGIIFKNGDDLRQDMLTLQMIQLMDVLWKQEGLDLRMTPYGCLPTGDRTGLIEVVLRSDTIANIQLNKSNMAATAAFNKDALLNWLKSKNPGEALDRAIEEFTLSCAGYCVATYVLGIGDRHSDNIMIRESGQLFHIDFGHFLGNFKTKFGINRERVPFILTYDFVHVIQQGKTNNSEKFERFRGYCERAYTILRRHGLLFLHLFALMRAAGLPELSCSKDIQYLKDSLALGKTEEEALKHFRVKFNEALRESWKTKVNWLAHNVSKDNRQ

Target: GST-tagged PIK3Cδ in complex with PIK3R1 (Homo sapiens (Human), UniProt O00329)
Settings: read-out: PIK3Cδ IC50

Substance | IC50
5-[4-amino-5-(trifluoromethyl)pyrrolo[2,1-f][1,2,4]triazin-7-yl]-N-[(3R,4S)-1-(4,4-difluorocyclohexanecarbonyl)-4-fluoropyrrolidin-3-yl]-2-methylbenzamide [Example 990] | 63 nM
5-{4-amino-5-[(4,4-difluoropiperidin-1-yl)methyl]pyrrolo[2,1-f][1,2,4]triazin-7-yl}-N-[3R,4S)-1-(3,5-difluoropyridine-2-carbonyl)-4-fluoropyrrolidin-3-yl]-2-methoxypyridine-3-carboxamide [Example 1263] | > 15000 nM
